# Laboratory results as given in PubChem BioAssay AID504329 (Southern Research Specialized Biocontainment Screening …, 2011).
# The list shows a part of the results, in another mix than the full data. Results with a measured potency or affinity are listed apart. Active and inactive are the calls of the source. Cut-off read from the data, not from the text of the source: inconclusive = inhibition above about 27% without an active follow-up result; inactive = below that.
# Test: NS1A inhibition, H1N1 influenza, cell based functional assay (AID 504329)
# Conditions: percent inhibition, at 12.5 µM, hits give high values
row,Compound,inhibition
1,CCC(=O)N(c1ccccc1)C1(COC)CCN(CCn2nnn(CC)c2=O)CC1,inactive: -3.66%
2,CCC(=O)N(c1ccccc1)C1(COC)CCN(CCc2cccs2)CC1,inactive: -0.96%
